Results reported in patent US20140066465A1, “CANCER TREATMENT USING TYROSINE KINASE AND NF-kB INHIBITORS” (The Cleveland Clinic Foundation, priority 2012, published 2014).

System: cancer cells
Conditions: cancer cells versus normal cells

With `CCN(CC)CCCC(C)Nc1c2ccc(Cl)cc2nc2ccc(OC)cc12` (stereo not shown) [quinacrine] the “Selective killing of cancer cells” value was “selectively kills cancer cells but not normal cells”.
